Patent US10349662B2, “Insecticidal compositions and methods of using the same” (priority 2011, dated 2019)

Test system: Aedes aegypti mosquitoes
Assay: Topical bioassay on adult female Aedes aegypti mosquitoes (knockdown 1 h, mortality 24 h; Colby calculation for combinations)
Assay type: in vivo
Settings: single active, 3%; listed as 7,8-Dihydo-α-ionone
From the text: Components of a composition can have a synergistic or additive effect on insecticidal activity. Components have an additive effect when the effect of the combination is equal to the sum of the effects of each individual component. In contrast, components have a synergistic effect when the effect of the combination exceeds the sum of the effects of the components when applied individually. The effect (E) of a combination of two compounds may be calculated using the Colby formula (1) (S. R. Colby, “Calculating Synergistic and Antagonistic Responses of Herbicide Combinations”, Weeds 1967, 15, 20-22):
If the actual insecticidal kill rate is the calculated value (E), then the action of the combination is additive. If the actual insecticidal kill rate exceeds the calculated value (E), then the action of the combination is super-additive, that is, a synergistic effect is present. If the insecticidal kill rate is lower than the calculated value (E), then the action of the combination is considered antagonistic. […]
The condition of the mosquitoes in each cup was recorded at one hour and 24 hours after initial treatment. […] The percent mortality for each treatment was calculated by summing the mortalities of each replicate then calculating the percent dead from the total number of mosquitoes. […]

**Q.** For 7,8-dihydro-α-ionone, which “% MORTALITY AFTER 24 HRS” value is on record?
**A.** 50%
